Earlier results, collected in patent US6984404B1, “Methods for preparing coated drug particles and pharmaceutical formulations thereof” (University of Florida Research Foundation, Inc., priority 1998, dated 2006).

Details: cited from earlier work

SMILES: CCCC1O[C@@H]2C[C@H]3[C@@H]4CCC5=CC(=O)C=C[C@]5(C)[C@H]4[C@@H](O)C[C@]3(C)[C@]2(C(=O)CO)O1 (some centres unmarked) [Budesonide, budesonide]
- pulmonary deposition ratio, DPI (dry powder inhaler): 32%
- pulmonary deposition ratio, MDI (metered dose inhaler (TA: Azmacort MDI with spacer)): 15%
